From publication PMC10071563, “The structure of the complex between the arsenite oxidase from Pseudorhizobium banfieldiae sp. strain NT-26 and its native electron acceptor cytochrome c 552” (2023)

Chains of the proteins cited; added tags and fusions are not shown. Lines headed by an entry give the natural chain unless they say otherwise; changes in a name come on top.
UniProt Q6VAL8: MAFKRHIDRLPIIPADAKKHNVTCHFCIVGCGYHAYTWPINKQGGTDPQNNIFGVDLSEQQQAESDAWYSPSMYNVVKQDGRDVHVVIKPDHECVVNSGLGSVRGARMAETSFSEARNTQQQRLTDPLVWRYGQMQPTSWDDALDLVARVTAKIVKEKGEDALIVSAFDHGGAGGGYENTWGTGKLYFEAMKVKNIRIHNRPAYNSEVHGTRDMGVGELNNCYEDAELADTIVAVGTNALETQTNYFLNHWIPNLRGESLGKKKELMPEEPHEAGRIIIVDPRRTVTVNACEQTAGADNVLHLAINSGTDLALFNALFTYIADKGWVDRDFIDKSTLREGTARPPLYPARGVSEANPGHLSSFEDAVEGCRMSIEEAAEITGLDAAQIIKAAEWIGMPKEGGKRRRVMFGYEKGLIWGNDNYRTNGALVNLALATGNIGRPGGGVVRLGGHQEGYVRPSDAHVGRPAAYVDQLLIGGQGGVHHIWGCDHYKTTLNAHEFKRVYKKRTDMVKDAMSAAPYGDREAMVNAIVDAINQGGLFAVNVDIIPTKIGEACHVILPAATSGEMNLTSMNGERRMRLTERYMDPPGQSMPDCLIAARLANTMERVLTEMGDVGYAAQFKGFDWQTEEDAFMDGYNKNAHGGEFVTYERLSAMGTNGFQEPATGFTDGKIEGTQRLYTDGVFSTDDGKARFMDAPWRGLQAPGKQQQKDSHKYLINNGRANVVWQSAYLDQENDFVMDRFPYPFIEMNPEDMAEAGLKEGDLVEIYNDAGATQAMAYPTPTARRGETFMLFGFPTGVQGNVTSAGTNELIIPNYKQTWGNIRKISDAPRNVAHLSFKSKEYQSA

Biological target: AioAB (arsenite oxidase) (Pseudorhizobium banfieldiae, UniProt Q6VAL8)
Assay: steady-state kinetics, cytochrome c552 reduction at […] nm
Details: read-out: K m(arsenite); cytochrome c552 20 µM as electron acceptor; 50 mM Tris-HCl pH 8.0; 2 nM enzyme

O[As](O)O
Km: 9.06 µM
